Target: Glycogen synthase kinase-3 beta (Homo sapiens, UniProt P49841)

Protein sequences, listed by entry. Tags and fused reporters are not part of them. Lines headed by an entry give the natural chain unless they say otherwise; changes in a name come on top.
UniProt P49841: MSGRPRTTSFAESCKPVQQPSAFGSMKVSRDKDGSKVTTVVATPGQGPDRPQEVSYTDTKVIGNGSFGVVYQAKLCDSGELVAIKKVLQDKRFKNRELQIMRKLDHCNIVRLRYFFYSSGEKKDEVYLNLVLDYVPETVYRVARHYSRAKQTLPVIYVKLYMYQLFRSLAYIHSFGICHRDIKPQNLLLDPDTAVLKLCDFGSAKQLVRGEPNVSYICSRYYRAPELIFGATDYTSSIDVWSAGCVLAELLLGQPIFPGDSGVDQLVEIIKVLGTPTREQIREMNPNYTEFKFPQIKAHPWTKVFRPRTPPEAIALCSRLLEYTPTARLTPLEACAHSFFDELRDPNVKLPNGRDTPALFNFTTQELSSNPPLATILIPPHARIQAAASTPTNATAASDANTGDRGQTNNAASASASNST

SMILES: C/C(=C\C=C\[C@@H](C)CC/C=C(\C)CC1OC(=O)C(=O)C1=O)CCCc1ccoc1 (stereo partly specified)
- IC50: 7.5 µM

From ChEMBL document CHEMBL4041480, “Natural and synthetic bioactive inhibitors of glycogen synthase kinase” (Eur J Med Chem, 2017)
